From PMC9257752, “Intestinal Absorption of FITC-Dextrans and Macromolecular Model Drugs in the Rat Intestinal Instillation Model” (Molecular Pharmaceutics, 2022)

What was measured:
[1] = Rat intestinal instillation model (intraduodenal administration, plasma pharmacokinetics, deconvolution); details: for Proportion of total absorption (120 min) occurring in interval 0–20 min / Proportion of total absorption (120 min) occurring in interval 20–40 min / Proportion of total absorption (120 min) occurring in interval 40–60 min / Proportion of total absorption (120 min) occurring in interval 60–80 min / Proportion of total absorption (120 min) occurring in interval 80–100 min / Proportion of total absorption (120 min) occurring in interval 100–120 min: average ± SD
[2] = oral administration to rats; molecular weight of FITC-dextrans excreted in urine similar to administered; cited from earlier work
[3] = rat intestinal instillation, cited from earlier work; for Proportion of total absorption (120 min) occurring in interval 0–20 min / Proportion of total absorption (120 min) occurring in interval 20–40 min / Proportion of total absorption (120 min) occurring in interval 40–60 min / Proportion of total absorption (120 min) occurring in interval 60–80 min / Proportion of total absorption (120 min) occurring in interval 80–100 min / Proportion of total absorption (120 min) occurring in interval 100–120 min: average ± SD; for Tmax: median (min–max)
[4] = 0 mM C10, numerical deconvolution, n = 5–6 (PEP12210 n = 2)
[5] = 50 mM C10, numerical deconvolution, n = 5–6
[6] = 300 mM C10, numerical deconvolution, n = 5–6

FITC-dextran 10 000 [FD10]
Tmax ([1]; 0 mM C10, blank FaSSIF pH 6.5, median (min–max), n = 5–6 (PEP12210 n = 2)): 120 (45–120) min | Proportion of total absorption (120 min) occurring in interval 0–20 min [1, 4]: 20% ± 4.1% | Proportion of total absorption (120 min) occurring in interval 20–40 min [1, 4]: 17% ± 1.1% | Proportion of total absorption (120 min) occurring in interval 40–60 min [1, 4]: 17% ± 0.83% | Proportion of total absorption (120 min) occurring in interval 60–80 min [1, 4]: 16% ± 1.3% | Proportion of total absorption (120 min) occurring in interval 80–100 min [1, 4]: 15% ± 2.2% | Proportion of total absorption (120 min) occurring in interval 100–120 min [1, 4]: 15% ± 2.1% | Tmax ([1]; 50 mM C10, blank FaSSIF pH 6.5, median (min–max), n = 5–6): 5 (5–10) min | Proportion of total absorption (120 min) occurring in interval 0–20 min [1, 5]: 74% ± 7.1% | Proportion of total absorption (120 min) occurring in interval 20–40 min [1, 5]: 12% ± 2.3% | Proportion of total absorption (120 min) occurring in interval 40–60 min [1, 5]: 5.8% ± 1.8% | Proportion of total absorption (120 min) occurring in interval 60–80 min [1, 5]: 4.0% ± 1.5% | Proportion of total absorption (120 min) occurring in interval 80–100 min [1, 5]: 2.4% ± 1.7% | Proportion of total absorption (120 min) occurring in interval 100–120 min [1, 5]: 2.2% ± 2.0% | Tmax ([1]; 300 mM C10, blank FaSSIF pH 6.5, median (min–max), n = 5–6): 30 (10–30) min | Proportion of total absorption (120 min) occurring in interval 0–20 min [1, 6]: 43% ± 8.7% | Proportion of total absorption (120 min) occurring in interval 20–40 min [1, 6]: 27% ± 1.2% | Proportion of total absorption (120 min) occurring in interval 40–60 min [1, 6]: 17% ± 3.4% | Proportion of total absorption (120 min) occurring in interval 60–80 min [1, 6]: 8.6% ± 2.8% | Proportion of total absorption (120 min) occurring in interval 80–100 min [1, 6]: 3.5% ± 2.2% | Proportion of total absorption (120 min) occurring in interval 100–120 min [1, 6]: 1.2% ± 0.76%

FITC-dextran 20 000
Degradation in the gastrointestinal tract [2]: not degraded to any significant extent

fluorescein isothiocyanate (FITC)-dextran 4000 [FD4]
Proportion of total absorption (120 min) occurring in interval 0–20 min ([3]; FD4, 0 mM C10): 17% ± 1.5% | Proportion of total absorption (120 min) occurring in interval 20–40 min ([3]; FD4, 0 mM C10): 17% ± 1.6% | Proportion of total absorption (120 min) occurring in interval 40–60 min ([3]; FD4, 0 mM C10): 16% ± 1.0% | Proportion of total absorption (120 min) occurring in interval 60–80 min ([3]; FD4, 0 mM C10): 16% ± 0.79% | Proportion of total absorption (120 min) occurring in interval 80–100 min ([3]; FD4, 0 mM C10): 17% ± 1.1% | Proportion of total absorption (120 min) occurring in interval 100–120 min ([3]; FD4, 0 mM C10): 17% ± 2.3% | Tmax ([3]; FD4, 0 mM C10): 90 (90–120) min | Proportion of total absorption (120 min) occurring in interval 0–20 min ([3]; FD4, 50 mM C10): 72% ± 6.8% | Proportion of total absorption (120 min) occurring in interval 20–40 min ([3]; FD4, 50 mM C10): 8.3% ± 3.8% | Proportion of total absorption (120 min) occurring in interval 40–60 min ([3]; FD4, 50 mM C10): 5.1% ± 2.8% | Proportion of total absorption (120 min) occurring in interval 60–80 min ([3]; FD4, 50 mM C10): 5.7% ± 1.5% | Proportion of total absorption (120 min) occurring in interval 80–100 min ([3]; FD4, 50 mM C10): 5.2% ± 1.5% | Proportion of total absorption (120 min) occurring in interval 100–120 min ([3]; FD4, 50 mM C10): 3.7% ± 0.19% | Tmax ([3]; FD4, 50 mM C10): 10 (5–10) min | Proportion of total absorption (120 min) occurring in interval 0–20 min ([3]; FD4, 300 mM C10): 44% ± 8.5% | Proportion of total absorption (120 min) occurring in interval 20–40 min ([3]; FD4, 300 mM C10): 27% ± 1.7% | Proportion of total absorption (120 min) occurring in interval 40–60 min ([3]; FD4, 300 mM C10): 15% ± 3.7% | Proportion of total absorption (120 min) occurring in interval 60–80 min ([3]; FD4, 300 mM C10): 7.3% ± 3.3% | Proportion of total absorption (120 min) occurring in interval 80–100 min ([3]; FD4, 300 mM C10): 3.9% ± 3.1% | Proportion of total absorption (120 min) occurring in interval 100–120 min ([3]; FD4, 300 mM C10): 3.5% ± 1.1% | Tmax ([3]; FD4, 300 mM C10): 30 (30–45) min | Degradation in the gastrointestinal tract [2]: not degraded to any significant extent

Like-named read-outs stand apart in the source and are kept apart here.
